Data reported in patent US10894087B2, “Multi-arm polymeric prodrug conjugates of cabazitaxel-based compounds” (Nektar Therapeutics, priority 2010, dated 2021).
Read-outs that look alike come from different tables or passages of the source.

Tests used:
[1] = test system: H460 non-small cell lung cancer (NSCLC) implants; conditions: for BW Nadir (Lowest Mean Body Weight for Group) / BW Nadir (d), day of nadir / Deaths: iv, qwk x 3; for Deaths: N=10
Description: Purpose. Studies were conducted to assess the growth inhibitory effects of PEGylated-conjugates of cabazitaxel on H460 non-small cell lung cancer (NSCLC) implants in athymic nu/nu mice.
Experimental plan. These studies were conducted using routine methods and materials that are familiar to those skilled in the art. Briefly, 8 to 12 week old female nu/nu mice were injected subcutaneously in the flank with 1×10^7 H460 tumor cells in 0.2 mL sterile buffer. […] Animals received three intravenous doses of test article at one week intervals beginning on day 1. Cabazitaxel solutions were prepared in D5W containing 5% Tween 80:10% ethanol. PEG-cabazitaxel conjugates were prepared in D5W. The administration volume for all test articles was 10 mL/kg. The test doses were selected to represent the MTD and ½ the MTD for each test compound. The tables list the actual mg/kg for each test article and the corresponding cabazitaxel equivalent calculated based on the weight-percent cabazitaxel content for each PEGylated conjugate.
Animals were weighed on days 1-5, 7, 9, 11, 13 then biweekly until the end of the study. Tumor sizes were measured using calipers biweekly throughout the study and tumor volumes were calculated using the formula for an ellipsoid sphere: L×W^2/2=mm^3, where L and W are the major axis dimensions of the tumor in mm. Additional parameters that were monitored were the number of non-specific deaths, number of partial and complete tumor regressions, number of tumor-free survivors, and the time required for individual animals' tumors to reach 2000 mm^3. The median time for a tumor to reach 2000 mm^3 in the treatment groups (T) and control group (C) was used to calculate of the overall delay in the growth of the median tumor (TGD). Animals were monitored individually until reaching the experimental endpoint: tumor size of 2000 mm^3 or 45 days, whichever came first. […] When the study endpoint was reached, the animals were euthanized.

[2] = Maximum tolerated dose (MTD) study of PEGylated conjugates of cabazitaxel in athymic mice; assay type: in vivo, female athymic nu/nu mice; conditions: qw x 3, iv; for Treatment-Related Deaths: N=5; for Estimated MTD, cabazitaxel equivalents: athymic nu/nu mice, guide value, not a definitive MTD
Description: Purpose. This study was performed to determine appropriate doses of each compound for tumor xenograft studies. In those studies, it is desirable to administer the maximum dose of test compound that will not cause excessive loss of body weight. In general, loss of ˜15% of the initial body weight of the animal is typically the maximum desired.
Experimental procedure. MTD for 4-arm-conjugated to cabazitaxel were determined in female athymic nu/nu mice using standard methods. Briefly, 8-12 week old mice were administered test compounds or cabazitaxel intravenously at one week intervals for a total of three doses per mouse (qw×3, iv) as shown in Tables 1 and 2. For all PEG-conjugated test compounds, the doses of both the conjugate and released cabazitaxel, calculated from the cabazitaxel content of the respective conjugate, are shown. […] PEG-cabazitaxel conjugates were prepared in D5W. […] Mice were observed daily for clinical signs and body weights were recorded on days 1-5 and then biweekly until the end of study. All procedures were conducted in compliance with IACUC requirements. Any individual animal with a single observation of greater than 30% body weight loss or three consecutive measurements of greater than 25% body weight loss was euthanized. For any group with two measurements of mean body weight loss of greater than 20%, dosing was stopped and recovery was allowed. Within a group with greater than 20% mean weight loss, individual animals greater than 30% body weight loss were euthanized. Compound dosing was terminated for any group in which mean weight loss exceeded 20% or >10% of animals died. Moribund animals were euthanized and all animals were euthanized at end of study (day 30).
Results. The results for the study MTD “20K Conjugates” are summarized in Table 3 and FIG. 1 while the results for the MTD “30K and 40K Conjugates” study are summarized Table 4 and FIG. 2. […] It should be noted that this is not meant to be a definitive MTD, but is simply a guide to select an appropriate dose for conducting tumor xenograft studies using this administration route and schedule. Note too, that these MTD are given as cabazitaxel equivalents. The actual dose of each conjugate must be corrected for the wt % of cabazitaxel in that specific conjugate.

[3] = 20K conjugate xenograft study, 12.5 mg/kg cabazitaxel eq.
[4] = 20K conjugate xenograft study, 25 mg/kg cabazitaxel eq.
[5] = 30K and 40K conjugate xenograft study, 15 mg/kg cabazitaxel eq.
[6] = 30K and 40K conjugate xenograft study, 30 mg/kg cabazitaxel eq.
[7] = MTD study 30K and 40K conjugates, 7.5 mg/kg cabazitaxel eq.
[8] = MTD study 30K and 40K conjugates, 15 mg/kg cabazitaxel eq.
[9] = MTD study 30K and 40K conjugates, 30 mg/kg cabazitaxel eq.
[10] = 20K conjugate xenograft study, 10 mg/kg cabazitaxel eq.
[11] = 20K conjugate xenograft study, 20 mg/kg cabazitaxel eq.
[12] = MTD study 20K conjugates, 7.5 mg/kg cabazitaxel eq.
[13] = MTD study 20K conjugates, 15 mg/kg cabazitaxel eq.
[14] = MTD study 20K conjugates, 30 mg/kg cabazitaxel eq.
[15] = 30K and 40K conjugate xenograft study, 10 mg/kg cabazitaxel eq.
[16] = 30K and 40K conjugate xenograft study, 20 mg/kg cabazitaxel eq.
[17] = 30K and 40K conjugate xenograft study, 6 mg/kg cabazitaxel eq.
[18] = 30K and 40K conjugate xenograft study, 12 mg/kg cabazitaxel eq.

With “4-ARM-PEG20K-Acetate-Linked Cabazitaxel [4-arm-PEG20K-CM-Cabazitaxel]” the “BW Nadir (Lowest Mean Body Weight for Group)” value [1, 3] was −15.9%, the “BW Nadir (d), day of nadir” value [1, 3] was “(22) d” and the “BW Nadir (Lowest Mean Body Weight for Group)” value [1, 4] was −10.1%. The “BW Nadir (d), day of nadir” value [1, 4] was “(22) d”.

In the case of “4-ARM-PEG40K-Glycinate-Linked Cabazitaxel Conjugate [4-arm-PEG40K-CM-glycine-Cabazitaxel]”, the “BW Nadir (Lowest Mean Body Weight for Group)” value [1, 5] is reported as −6.4%, the “BW Nadir (d), day of nadir” value [1, 5] is reported as “(22) d” and the Deaths [1, 5] is reported as 0. The “BW Nadir (Lowest Mean Body Weight for Group)” value [1, 6] was −15.3%, the “BW Nadir (d), day of nadir” value [1, 6] was “(22) d” and the Deaths [1, 6] was 0. The “BW Nadir” value [2, 7] was −3.8%, the “BW Nadir (day)” value [2, 7] was 2 days and the “Treatment-Related Deaths” value [2, 7] was 0. The “BW Nadir” value [2, 8] was −6.7%, the “BW Nadir (day)” value [2, 8] was 5 days and the “Treatment-Related Deaths” value [2, 8] was 0. For the same substance, the “BW Nadir” value [2, 9] was −6.2%, the “BW Nadir (day)” value [2, 9] was 21 days and the “Treatment-Related Deaths” value [2, 9] was 0. For the same substance, the “Estimated MTD, cabazitaxel equivalents” value [2] was 12 mg/kg.

For “4-ARM-PEG20K-Alaninate-Linked Cabazitaxel Conjugate [4-arm-PEG20K-CM-alanine-Cabazitaxel]”, the “BW Nadir (Lowest Mean Body Weight for Group)” value [1, 10] was −6.6%, the “BW Nadir (d), day of nadir” value [1, 10] was “(22) d” and the Deaths [1, 10] was 0. For the same substance, the “BW Nadir (Lowest Mean Body Weight for Group)” value [1, 11] was −13.0%, the “BW Nadir (d), day of nadir” value [1, 11] was “(17) d” and the Deaths [1, 11] was 0. For the same substance, the “BW Nadir” value [2, 12] was −4.6%, the “BW Nadir (day)” value [2, 12] was 13 days and the “Mean Day of Death” value [2, 12] was 15. The “Treatment-Related Deaths” value [2, 12] was 1, the “BW Nadir” value [2, 13] was −4.4% and the “BW Nadir (day)” value [2, 13] was 3 days. The “Treatment-Related Deaths” value [2, 13] was 0, the “BW Nadir” value [2, 14] was −22.1% and the “BW Nadir (day)” value [2, 14] was 23 days. The “Treatment-Related Deaths” value [2, 14] was 0 and the “Estimated MTD, cabazitaxel equivalents” value [2] was 20 mg/kg.

With “4-ARM-PEG40K-Alaninate-Linked Cabazitaxel Conjugate [4-arm-PEG40K-CM-alanine-Cabazitaxel]” the “BW Nadir (Lowest Mean Body Weight for Group)” value [1, 15] was −9.5%, the “BW Nadir (d), day of nadir” value [1, 15] was “(25) d” and the Deaths [1, 15] was 0. The “BW Nadir (Lowest Mean Body Weight for Group)” value [1, 16] was −17.2%, the “BW Nadir (d), day of nadir” value [1, 16] was “(18) d” and the Deaths [1, 16] was 0. For the same substance, the “Treatment-Related Deaths” value [2, 7] was 0, the “BW Nadir” value [2, 8] was −4.4% and the “BW Nadir (day)” value [2, 8] was 21 days. The “Treatment-Related Deaths” value [2, 8] was 0, the “BW Nadir” value [2, 9] was −25.9% and the “BW Nadir (day)” value [2, 9] was 21 days. For the same substance, the “Mean Day of Death” value [2, 9] was 23, the “Treatment-Related Deaths” value [2, 9] was 1 and the “Estimated MTD, cabazitaxel equivalents” value [2] was 20 mg/kg.

With “4-ARM-PEG30K-Alaninate-Linked Cabazitaxel Conjugate [4-arm-PEG30K-CM-alanine-Cabazitaxel]” the “BW Nadir (Lowest Mean Body Weight for Group)” value [1, 17] was −3.3%, the “BW Nadir (d), day of nadir” value [1, 17] was “(18) d” and the Deaths [1, 17] was 0. The “BW Nadir (Lowest Mean Body Weight for Group)” value [1, 18] was −8.5%, the “BW Nadir (d), day of nadir” value [1, 18] was “(22) d” and the Deaths [1, 18] was 0. For the same substance, the “BW Nadir” value [2, 7] was −2.7%, the “BW Nadir (day)” value [2, 7] was 2 days and the “Treatment-Related Deaths” value [2, 7] was 0. For the same substance, the “BW Nadir” value [2, 8] was −15.2%, the “BW Nadir (day)” value [2, 8] was 21 days and the “Treatment-Related Deaths” value [2, 8] was 0. The “BW Nadir” value [2, 9] was −30.9%, the “BW Nadir (day)” value [2, 9] was 21 days and the “Treatment-Related Deaths” value [2, 9] was 0. For the same substance, the “Estimated MTD, cabazitaxel equivalents” value [2] was 30 mg/kg.

In the case of “4-ARM-PEG20K-Glycinate-Linked Cabazitaxel Conjugate [4-arm-PEG20K-CM-glycine-Cabazitaxel]”, the “BW Nadir (Lowest Mean Body Weight for Group)” value [1, 10] is reported as −9.2%, the “BW Nadir (d), day of nadir” value [1, 10] is reported as “(22) d” and the Deaths [1, 10] is reported as 0. The “BW Nadir (Lowest Mean Body Weight for Group)” value [1, 11] was −9.5%, the “BW Nadir (d), day of nadir” value [1, 11] was “(22) d” and the Deaths [1, 11] was 0. The “BW Nadir” value [2, 12] was −0.7%, the “BW Nadir (day)” value [2, 12] was 3 days and the “Treatment-Related Deaths” value [2, 12] was 0. The “Treatment-Related Deaths” value [2, 13] was 0, the “BW Nadir” value [2, 14] was −15.6% and the “BW Nadir (day)” value [2, 14] was 23 days. The “Treatment-Related Deaths” value [2, 14] was 0 and the “Estimated MTD, cabazitaxel equivalents” value [2] was 20 mg/kg.

For “4-ARM-PEG20K-Butanoate-Linked Cabazitaxel Conjugate [4-arm-PEG20K-BA-Cabazitaxel]”, the “BW Nadir (Lowest Mean Body Weight for Group)” value [1, 3] was −4.3%, the “BW Nadir (d), day of nadir” value [1, 3] was “(22) d” and the “Weight loss (in words)” value ([1]; 20K conjugate xenograft study, 25 mg/kg) was “slightly higher than expected weight loss”. For the same substance, the “BW Nadir (Lowest Mean Body Weight for Group)” value [1, 4] was −19.6% and the “BW Nadir (d), day of nadir” value [1, 4] was “(22) d”.

With “4-ARM-PEG30K-Glycinate-Linked Cabazitaxel Conjugate [4-arm-PEG30K-CM-glycine-Cabazitaxel]” the “BW Nadir (Lowest Mean Body Weight for Group)” value [1, 15] was −5.9%, the “BW Nadir (d), day of nadir” value [1, 15] was “(22) d” and the Deaths [1, 15] was 0. The “BW Nadir (Lowest Mean Body Weight for Group)” value [1, 16] was −9.8%, the “BW Nadir (d), day of nadir” value [1, 16] was “(22) d” and the Deaths [1, 16] was 0. The “BW Nadir” value [2, 7] was −0.2%, the “BW Nadir (day)” value [2, 7] was 2 days and the “Treatment-Related Deaths” value [2, 7] was 0. The “BW Nadir” value [2, 8] was −3.7%, the “BW Nadir (day)” value [2, 8] was 11 days and the “Treatment-Related Deaths” value [2, 8] was 0. For the same substance, the “BW Nadir” value [2, 9] was −23.5%, the “BW Nadir (day)” value [2, 9] was 24 days and the “Treatment-Related Deaths” value [2, 9] was 0. The “Estimated MTD, cabazitaxel equivalents” value [2] was 20 mg/kg.
